From PubChem BioAssay AID651602 (The Scripps Research Institute Molecular Screening Center, 2012)
This is a selection; strong and weak results do not stand in their true shares. Some results for these compounds are left out of this collection, so the calls shown say nothing about other tests. The source made the active and inactive calls. No stated cut-off is given here; in the data, active means inhibition above about 11%; inactive means the rest.

Experiment: growth loss of phage-infected E. coli, primary screen, RecBCD inhibitor project, absorbance, with phage, HTS (AID 651602)
Conditions: at 11.9 µM, hits give high values

SMILES	inhibition
COc1ccc(Br)c(C(=O)NCC2(N3CCCCC3)CCCCC2)c1	inactive: 1.07%
C=C(C)C#CC(O)(C(=O)OC1CCN(C)CC1)c1ccccc1 (stereo unspecified)	inactive: 1.63%
CN(C)c1cccc(C(=O)NCC2(N(C)C)CCCCC2)c1	inactive: 2.06%
CC(C)Oc1ccc(C(=O)NCC2(N(C)C)CCCCC2)cc1	inactive: 1.51%
O=C(OCCN1CCCC1)C(O)(c1ccccc1)c1ccccc1	inactive: 1.93%
O=C(OC1CN2CCC1CC2)C(CO)(c1ccccc1)c1ccccc1 (stereo unspecified)	inactive: 1.26%
COc1cccc(C(=O)NCC2(N3CCCCC3)CCCCC2)c1	inactive: 1.23%
COc1ccc(Cl)cc1C(=O)NCC1(N(C)C)CCCCC1	inactive: 2.46%
O=C(NCC1(N2CCCCC2)CCCCC1)c1cccc(Cl)c1	inactive: 2.82%
CN(C)C1(CNC(=O)c2ccc(Br)cc2)CCCCC1	inactive: 0.87%
COc1cc(C(=O)NCC2(N(C)C)CCCCC2)c([N+](=O)[O-])cc1OC	inactive: -0.63%
C=CCN1CCN(CCOC(=O)C(O)(c2ccccc2)c2ccccc2)CC1	inactive: 2.47%
O=C(NCC1(N2CCCCC2)CCCCC1)c1cc(F)c(F)cc1Cl	inactive: 1.84%
Cc1cc(C(=O)NCC2(N3CCCCC3)CCCCC2)ccc1[N+](=O)[O-]	inactive: 1.2%
CCN1CCCC(OC(=O)C2(O)c3ccccc3C=Cc3ccccc32)C1 (stereo unspecified)	inactive: -3.87%
O=C(NCC1(N2CCCCC2)CCCCC1)c1cccc(Br)c1	inactive: 0.48%
COc1ccc(C(=O)NCC2(N(C)C)CCCCC2)cc1	inactive: 1.51%
Cc1ccccc1C(=O)NCC1(N2CCCCC2)CCCCC1	inactive: 2.85%
CN(C)C1CCCC1OC(=O)C(O)(c1ccccc1)c1ccccc1 (stereo unspecified)	inactive: 2.53%
CN(C)c1ccc(C(=O)NCC2(N(C)C)CCCCC2)cc1	inactive: 3.59%
CC(C)N1C(=O)CC2(CCN(CCOC(=O)C(O)(c3ccccc3)c3ccccc3)CC2)C1=O	inactive: 0.87%
CCN(CC)CC(C)C(C)OC(=O)C(O)(c1ccccc1)c1ccccc1 (stereo unspecified)	inactive: 2.6%
COc1cc(SC)ccc1C(=O)NCC1(N(C)C)CCCCC1	inactive: -1.11%
Cc1ccc(C(=O)NCC2(N3CCCCC3)CCCCC2)cc1	inactive: 4.39%
O=C(NCC1(N2CCCCC2)CCCCC1)c1cc([N+](=O)[O-])ccc1Cl	inactive: 2.3%
CN1[C@@H]2CC[C@H]1CC(OC(=O)C(O)(c1ccccc1)c1ccccc1)C2 (stereo partly specified)	inactive: 4.52%
